From PubChem BioAssay AID817 (Emory University Molecular Libraries Screening Center, 2007)
The entries are a selection whose mix differs from that of the whole data set. Active and inactive are the calls of the source.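 How the source made its calls: active means z-score above 3 at both the 24 hr and the 30 hr optical density reads; inactive means the rest, inconclusive results apart.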

Assay: growth rescue of sdo1-depleted yeast, primary screen, S. cerevisiae, bone marrow failure model (AID 817);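 further: z-score against mean and SD of all compound wells on the same plate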
Conditions: S. cerevisiae sdo1-depleted JHY4D growth rescue, OD600 30 h; at 10 µM; hits give high values; pdr5 snq2 efflux-pump mutant strain

SMILES | z-score
O=P(Nc1nccs1)(c1ccccc1)c1ccccc1 | inactive: 0.69
Cc1ccccc1NP(C)(=O)Nc1ccccc1C | inactive: 0.13
CP(=O)(Nc1ccc2c(c1)OCCO2)Oc1ccccc1 (centres undefined) | inactive: -0.14
Clc1n[nH]nc1-c1nn[nH][15n]1 | inactive: 0.43
O=P1(Nc2ccccn2)COc2ccccc2OC1 | inactive: 0.52
Cc1nc2ccc3ccccc3c2s1.O=[N+]([O-])c1cc([N+](=O)[O-])c(O)c([N+](=O)[O-])c1 | inactive: -1.13
Cc1nn(-c2ccccc2)c2c1P(=O)(N1CCOCC1)N(C)C(c1ccccc1)=N2 (centres undefined) | inactive: 0.25
COc1cc(C2NCCC3(OCCO3)C2(C)C)cc(OC)c1OC.O=[N+]([O-])c1cc([N+](=O)[O-])c(O)c([N+](=O)[O-])c1 (centres undefined) | inactive: 0.89
CP(=O)(Nc1ccc(SC(F)(F)F)cc1)Oc1ccccc1 (centres undefined) | inactive: -0.55
O=P1(Nc2ccc(Br)cn2)COc2ccccc2OC1 | inactive: -1.04
Cc1ccc(OCC(=O)OC2CN3CCC2CC3)cc1 (centres undefined) | inactive: 0.47
O=P1(Nc2ncccn2)COc2ccccc2OC1 | inactive: 0.61
COc1ccccc1OP(C)(=O)Nc1c(C)cccc1C (centres undefined) | inactive: 0.42
CN1CCCCC1COC(=O)C1(O)c2ccccc2CCc2ccccc21 (centres undefined) | inactive: 0.46
O=P(Nc1nccs1)(c1ccccc1)c1nc2ccccc2s1 (centres undefined) | inactive: -0.64
CCOP1(=S)c2c(C)nn(CCC#N)c2N=C(c2ccccc2F)N1C (centres undefined) | inactive: -0.12
CCOP1(=S)c2c(C)nn(CCC#N)c2N=C(c2ccc(F)cc2)N1C (centres undefined) | inactive: 0.62
CC1=NCCc2c1[nH]c1ccccc21.O=[N+]([O-])c1cc([N+](=O)[O-])c(O)c([N+](=O)[O-])c1 | inactive: 0.37
O=[N+]([O-])c1ccc2c(c1)nnn2O | inactive: 0.67
Cc1cc(C)cc(OP(C)(=O)Nc2ccc(C)cc2C)c1 (centres undefined) | inactive: -0.27
Cc1cccc(OCC(=O)OC2CN3CCC2CC3)c1 (centres undefined) | inactive: 0.23
CCOC(=O)c1ccc(NP(C)(=O)Oc2cc(C)cc(C)c2)cc1 (centres undefined) | inactive: 0.16
CCOP(=O)(Nc1cccc2ccccc12)OCC | inactive: -0.29
Cc1ccc(NCCc2c([N+](=O)[O-])cc([N+](=O)[O-])cc2[N+](=O)[O-])cc1 | inactive: -1.16
Cc1cc(C)cc(OP(C)(=O)Nc2ccccn2)c1 (centres undefined) | inactive: -0.42

SMILES | z-score
Cc1ccc(C)c(NP(C)(=O)Oc2ccccc2)c1 (centres undefined) | inactive: -0.32
Cc1c2c(nc3ccccc13)SC(C(Cl)Cl)C2 (centres undefined) | inactive: -1.31
O=C(OC1CN2CCC1CC2)C12CC3CC(CC(C3)C1)C2 (centres undefined) | inactive: -0.86
CC(C)(C)c1ccc(OP(C)(=O)Nc2ccc(SC(F)(F)F)cc2)cc1 (centres undefined) | inactive: -0.69
Cc1ccc2nc3c(c(C)c2c1)CC(C(Cl)Cl)S3 (centres undefined) | inactive: -1.31
O=[N+]([O-])c1cc([N+](=O)[O-])c(-c2ccn[nH]2)s1 | inactive: -0.74
COc1ccc(OP(C)(=O)Nc2cccc(F)c2)cc1 (centres undefined) | inactive: 0.41
CCN(CC)C(=S)SC(NC=O)C(Cl)(Cl)Cl (centres undefined) | inactive: -1.67
ClCCSc1nnc(-c2cccnc2)o1 | inactive: 2.51
CCOC(=O)c1ccc(NP(C)(=O)Oc2ccccc2)cc1 (centres undefined) | inactive: -0.05
Cc1ccc(NP(C)(=O)Oc2ccccc2)c(C)c1 (centres undefined) | inactive: 0.85
COc1ccccc1OP(C)(=O)Nc1ccc(C)cc1 (centres undefined) | inactive: 0.69
Cc1cc(SC(NC(=O)c2ccccc2)C(Cl)(Cl)Cl)nc(C(C)C)n1 (centres undefined) | inactive: -0.13
CP(=O)(Nc1ccccc1Br)Oc1ccccc1 (centres undefined) | inactive: 0.37
CP(=S)(Nn1cnnc1)Oc1ccccc1 (centres undefined) | inactive: 0.97
Cc1cc(C)cc(OP(C)(=O)Nc2ccc(SC(F)(F)F)cc2)c1 (centres undefined) | inactive: -0.81
O=C(COc1ccccc1)OC1CN2CCC1CC2 (centres undefined) | inactive: -0.64
CP(=O)(NC(=O)Nc1ccccc1)Oc1ccccc1 (centres undefined) | inactive: 0.36
Cc1cccc(C)c1OP(C)(=O)Nc1ccc(SC(F)(F)F)cc1 (centres undefined) | inactive: -1.66
COP1(=S)c2c(C)nn(CCC#N)c2N=C(c2ccc(F)cc2)N1C (centres undefined) | inactive: 0.34
CCC(C)N(CC(C)C)C(=S)SC(NC(C)=O)C(Cl)(Cl)Cl (centres undefined) | inactive: -1.06
CP(=O)(Nc1ccccn1)Oc1ccc(Cl)cc1 (centres undefined) | inactive: -0.55
CCOP(C)(=S)SCC(=O)NC(C)C(=O)O (centres undefined) | inactive: 0.83
CCOC(=O)c1ccc(NP(C)(=O)Oc2ccc(OC)cc2)cc1 (centres undefined) | inactive: -0.42
